Test results as given in patent US20080220004A1.

The chains behind the UniProt entries cited, without tags or fusion partners. A line that says so, or that is headed by a name, gives the form on record, which may keep a tag or linker.
UniProt P15692, other isoform, or with tags, fused parts or gaps limits assumed: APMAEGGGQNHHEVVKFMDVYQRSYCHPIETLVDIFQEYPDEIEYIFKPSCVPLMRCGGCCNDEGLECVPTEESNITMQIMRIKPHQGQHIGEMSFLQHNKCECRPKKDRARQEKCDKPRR

Target: VEGF 121 (R&D Biosystems) (UniProt P15692)
Assay: cell-based or functional assay

Question: With “anti-VEGF antibody (Avastin™, Genentech)” as the substance, how does the inhibition of VEGF growth response of Baf/Flt cells (70 pM VEGF, 3 days), IC50 read?
Answer: 0.0014 µM
